The source of these data is PubChem BioAssay AID1671463 (Sanford-Burnham Center for Chemical Genomics, 2021).

Amino acid sequences for entries named in this document (tags omitted).
UniProt P16066, whole entry: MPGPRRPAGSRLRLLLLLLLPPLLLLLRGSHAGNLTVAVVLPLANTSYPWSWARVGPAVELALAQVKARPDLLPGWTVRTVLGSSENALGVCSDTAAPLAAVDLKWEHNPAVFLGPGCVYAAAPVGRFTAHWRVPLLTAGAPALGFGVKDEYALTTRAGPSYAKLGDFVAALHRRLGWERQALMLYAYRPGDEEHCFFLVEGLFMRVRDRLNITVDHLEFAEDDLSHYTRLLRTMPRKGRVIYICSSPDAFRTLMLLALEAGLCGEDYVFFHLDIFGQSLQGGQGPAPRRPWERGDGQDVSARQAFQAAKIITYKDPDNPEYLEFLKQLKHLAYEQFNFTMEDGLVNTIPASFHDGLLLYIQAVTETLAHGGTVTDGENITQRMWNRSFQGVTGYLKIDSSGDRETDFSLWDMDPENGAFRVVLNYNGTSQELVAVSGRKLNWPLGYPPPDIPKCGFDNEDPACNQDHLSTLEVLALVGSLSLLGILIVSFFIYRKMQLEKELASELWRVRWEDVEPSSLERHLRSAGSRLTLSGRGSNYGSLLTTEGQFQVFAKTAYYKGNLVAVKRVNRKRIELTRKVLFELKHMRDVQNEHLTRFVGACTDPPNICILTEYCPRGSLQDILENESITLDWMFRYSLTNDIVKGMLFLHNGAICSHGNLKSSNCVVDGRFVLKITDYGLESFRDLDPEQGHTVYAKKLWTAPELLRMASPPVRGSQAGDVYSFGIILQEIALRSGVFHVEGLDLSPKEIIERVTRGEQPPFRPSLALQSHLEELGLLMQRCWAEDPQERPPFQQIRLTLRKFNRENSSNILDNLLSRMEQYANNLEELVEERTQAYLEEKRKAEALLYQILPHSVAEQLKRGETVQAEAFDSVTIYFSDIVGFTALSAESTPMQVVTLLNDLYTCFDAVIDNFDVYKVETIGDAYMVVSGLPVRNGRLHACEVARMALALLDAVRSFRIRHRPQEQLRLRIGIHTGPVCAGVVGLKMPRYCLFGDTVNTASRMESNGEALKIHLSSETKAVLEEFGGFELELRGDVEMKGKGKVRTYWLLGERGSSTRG

The entries are a selection whose mix differs from that of the whole data set. Some salts or complexes appear as unconnected parts, following the source record. Activity calls are given as the source filed them. Rule as the data show it: active = activation above about 40%; inactive = the rest.

The assay addresses Atrial natriuretic peptide receptor 1 (Homo sapiens) (UniProt P16066). As to the kind of experiment: GC-A stimulated cGMP production enhancers – HEK293 GC-A cells, cGMP TR-FRET, EC30 ANP, primary screen (AID 1671463). Particulars: at 10 µM, hits give high values, 0% at EC30 ANP, 100% saturating ANP.
For the compound `Nc1ccc2c(ccc3cccnc32)n1.O=[N+]([O-])c1cc([N+](=O)[O-])c(O)c([N+](=O)[O-])c1`, the activation is inactive: 4.53%.

On to `CP(=O)(OC12CC3CC(CC(C3)C1)C2)OC12CC3CC(CC(C3)C1)C2`, for which the activation was inactive: 2.71%.

Turning to `CCOC(=O)c1ccc(NP(C)(=O)Oc2ccc(Cl)cc2)cc1` (configuration not stated), the activation was inactive: 1.69%.

In the case of `COc1ccc(OP(C)(=O)Nc2ccc(Br)cc2)cc1` (configuration not stated), the activation is inactive: -7.46%.

Turning to `CCc1ccc(OP(C)(=O)Nc2cccnc2)cc1` (configuration not stated), the activation is inactive: 1.27%.

Regarding `CP(=O)(Oc1ccccc1)N1CCOC1=O` (configuration not stated), the activation is inactive: 4.45%.

On to `O=C(OCCCN1CCCC1)C(O)(c1ccccc1)C1CCCCC1` (configuration not stated), for which the activation is inactive: 1.36%.

As to `COc1ccccc1OP(C)(=O)Nc1c(C)n(C)n(-c2ccccc2)c1=O` (configuration not stated), the activation is inactive: 1.83%.

As for `CP(=O)(Nc1ccc(Cl)cc1)Oc1ccc(F)cc1` (configuration not stated), the activation was inactive: -10.8%.

With `COc1ccccc1OP(C)(=O)Nc1ccccc1Br` (configuration not stated), the activation is inactive: -6.63%.

As for `CC(C)(C)c1ccc(OP(C)(=O)O)cc1`, the activation was inactive: 0.21%.

Consider `CN(C)C(=O)c1c([N+](=O)[O-])cc([N+](=O)[O-])cc1[N+](=O)[O-]`, for which the activation was inactive: 1.56%.

With `COc1ccccc1OP(C)(=O)Nc1ccc(Br)cc1` (configuration not stated), the activation is inactive: -9.37%.

Take `CN(C)CCOC(=O)C(O)(c1ccccc1)C1CCCC1` (configuration not stated): the activation is inactive: -1.52%.

`COc1ccc(OP(C)(=O)Nc2ccccn2)cc1` (configuration not stated): the activation was inactive: -0.29%.

With `Cc1c(NP(C)(=O)Oc2ccc(C(C)C)cc2)c(=O)n(-c2ccccc2)n1C` (configuration not stated), the activation is inactive: -4.76%.

`O=[N+]([O-])c1cc([N+](=O)[O-])c(Nc2ccccn2)c([N+](=O)[O-])c1`: the activation was inactive: -2.64%.

For the compound `CCc1ccc(OP(C)(=O)O)cc1`, the activation is inactive: 2.3%.

Turning to `COc1ccccc1OP(C)(=O)Nc1ccc(C)cc1C` (configuration not stated), the activation was inactive: -1.81%.

For the compound `CP(=O)(Nc1ccccn1)Oc1ccccc1` (configuration not stated), the activation is inactive: -1.03%.

`Cc1cc(C)cc(OP(C)(=O)Nc2cccc(C(F)(F)F)c2)c1` (configuration not stated): the activation was inactive: -3.19%.

Consider `O=C1C(O)=C([N+](=O)[O-])C(=O)C(O)=C1[N+](=O)[O-]`, for which the activation is inactive: 3.84%.

As to `COc1ccc(OP(C)(=O)Nc2ccccc2Br)cc1` (configuration not stated), the activation is inactive: -5.44%.

For the compound `COc1ccccc1OP(C)(=O)Nc1ccc(C)c(C)c1` (configuration not stated), the activation was inactive: 3.93%.

For `CP(=O)(Nc1ccc(Cl)cc1Cl)Oc1ccccc1` (configuration not stated), the activation is inactive: -18.4%.

With `CCCCCCCCCCCCCCCC1C[N+](C)(C)CCOP(C)(=O)O1` (configuration not stated), the activation is inactive: -31.1%.

As for `CP(=O)(OCCOc1ccccc1)OCCOc1ccccc1`, the activation was inactive: -2.41%.

For the compound `CCN(CC)CCCNc1ccccc1[N+](=O)[O-].O=[N+]([O-])c1cc([N+](=O)[O-])c(O)c([N+](=O)[O-])c1`, the activation is inactive: -1.89%.

Take `COc1ccc(OP(C)(=O)Nc2ccc(SC(F)(F)F)cc2)cc1` (configuration not stated): the activation is inactive: 2.97%.

Consider `CCOC(=O)c1ccc(NP(C)(=O)Oc2ccc(F)cc2)cc1` (configuration not stated), for which the activation was inactive: 1.9%.

In the case of `CCN(CC)CCCOC(=O)C(O)(c1ccccc1)C1CCCCC1` (configuration not stated), the activation is inactive: 0.74%.

For the compound `Cc1c([N+](=O)[O-])cc([N+](=O)[O-])c(Br)c1[N+](=O)[O-]`, the activation was inactive: -1.4%.

Take `O=[N+]([O-])c1cc([N+](=O)[O-])c(OC2CCCCC2O)c([N+](=O)[O-])c1` (configuration not stated): the activation was inactive: -0.97%.

As to `CCCCCOc1ccc(NP(C)(=O)Oc2ccc(Cl)cc2Cl)cc1` (configuration not stated), the activation was inactive: 1.86%.

On to `CP(=O)(Nc1ccccc1)Oc1ccc(F)cc1` (configuration not stated), for which the activation was inactive: -5.56%.

As to `O=[N+]([O-])c1cc([N+](=O)[O-])c(Nc2ccc(Cl)cc2)c([N+](=O)[O-])c1`, the activation is inactive: 7.46%.

With `CC(C)c1ccc(OP(C)(=O)Nc2ccc(SC(F)(F)F)cc2)cc1` (configuration not stated), the activation was inactive: 4.58%.

On to `CP(=O)(Nc1ccccc1F)Oc1ccccc1` (configuration not stated), for which the activation was inactive: -3.42%.

On to `O=C(OCCN1CCN(CCOCc2ccccc2)CC1)C(O)(c1ccccc1)c1ccccc1`, for which the activation was inactive: -1.52%.

With `O=C(OC1CN2CCC1CC2)c1ccc([N+](=O)[O-])cc1` (configuration not stated), the activation was inactive: -3.93%.

On to `COc1ccc2c(c1O)-c1c(O)c(OC)cc3c1[C@H](C2)[N+](C)(C)CC3.O=[N+]([O-])c1cc([N+](=O)[O-])c([O-])c([N+](=O)[O-])c1[O-]`, for which the activation is inactive: -4.77%.

In the case of `CP(=O)(Nc1ccc(SC(F)(F)F)cc1)Oc1ccc(F)cc1` (configuration not stated), the activation is inactive: 6.82%.

Consider `CCOP(=O)(CC)OCC`, for which the activation is inactive: -0.42%.

Consider `CCOP(C)(=S)SCC(=O)NC(C)(CC)C(=O)O` (configuration not stated), for which the activation is inactive: 0.63%.

As for `CP(=O)(Nc1ccc2c(c1)OCCO2)Oc1ccccc1` (configuration not stated), the activation was inactive: 1.05%.

Turning to `O=[N+]([O-])c1cc([N+](=O)[O-])c(C(F)(F)F)c([N+](=O)[O-])c1O`, the activation is inactive: -6.67%.

For the compound `Cc1ccccc1NP(C)(=O)Nc1ccccc1C`, the activation was inactive: -0.98%.

Turning to `COc1ccc(OP(C)(=O)Nc2cccc(Br)c2)cc1` (configuration not stated), the activation was inactive: -8.02%.

As for `COc1ccc(NP(C)(=O)Oc2ccccc2OC)cc1` (configuration not stated), the activation is inactive: 1.99%.

As for `CN(C)CCOC(=O)C(O)(c1ccccc1)C1CCCCC1` (configuration not stated), the activation was inactive: -2.22%.

As to `O=[N+]([O-])c1cc([N+](=O)[O-])c(NCC2CCS(=O)(=O)C2)c([N+](=O)[O-])c1` (configuration not stated), the activation is inactive: 1.26%.

For `Cc1cc(-c2cccc3ccccc23)c(C)cn1.O=[N+]([O-])c1cc([N+](=O)[O-])c(O)c([N+](=O)[O-])c1`, the activation was inactive: -2.51%.

As to `O=[N+]([O-])c1ccc(OP2(=O)COCCO2)cc1` (configuration not stated), the activation was inactive: 2.38%.

With `Cc1c(C(c2ccc3c(c2)OCO3)c2c(C)n(C)n(-c3ccccc3)c2=O)c(=O)n(-c2ccccc2)n1C.O=[N+]([O-])c1cc([N+](=O)[O-])c(O)c([N+](=O)[O-])c1`, the activation is inactive: 0.2%.

`CCOC(=O)C(CC)C1=NC(C)(C)Cc2ccccc21.O=[N+]([O-])c1cc([N+](=O)[O-])c(O)c([N+](=O)[O-])c1` (configuration not stated): the activation is inactive: -6.12%.

As for `O=[N+]([O-])c1cc([N+](=O)[O-])c(Nc2nnnn2CCO)c([N+](=O)[O-])c1`, the activation is inactive: -0.47%.

On to `CN1CCCCC1COC(=O)C1(O)c2ccccc2CCc2ccccc21` (configuration not stated), for which the activation was inactive: -18.4%.

For the compound `COc1ccccc1OP(C)(=O)Nc1c(C)cccc1C` (configuration not stated), the activation was inactive: -5.89%.

Consider `CCCOc1ccc(NP(C)(=O)Oc2ccc(Cl)cc2)cc1` (configuration not stated), for which the activation was inactive: 0.16%.

For the compound `CP(=O)(Nc1ccc(SC(F)(F)F)cc1)Oc1ccccc1` (configuration not stated), the activation was inactive: 2.56%.

With `COc1ccc(-c2ccccn2)cc1.O=[N+]([O-])c1cc([N+](=O)[O-])c(O)c([N+](=O)[O-])c1`, the activation was inactive: 2.47%.

Turning to `O=[N+]([O-])c1cc([N+](=O)[O-])c(-n2nnc3ccccc32)c([N+](=O)[O-])c1`, the activation is inactive: 0.83%.

Turning to `CN(Cc1cccnc1)C(=O)COc1ccc(Cl)c(Cl)c1.O=[N+]([O-])c1cc([N+](=O)[O-])c(O)c([N+](=O)[O-])c1`, the activation was inactive: 0.54%.

For `O=[N+]([O-])c1cc([N+](=O)[O-])c(-c2cnn(-c3ccccc3)c2)c([N+](=O)[O-])c1`, the activation was inactive: -3.13%.

For `Cc1nc2ccc3ccccc3c2s1.O=[N+]([O-])c1cc([N+](=O)[O-])c(O)c([N+](=O)[O-])c1`, the activation was inactive: -0.62%.

On to `COc1ccccc1OP(C)(=O)Nc1cccc(Br)c1` (configuration not stated), for which the activation is inactive: -5.04%.

For the compound `Cc1cc(C)cc(OP(C)(=O)Nc2ccc(C)cc2C)c1` (configuration not stated), the activation was inactive: -1.81%.

Regarding `CCOC(=O)c1ccc(NP(C)(=O)Oc2cc(C)cc(C)c2)cc1` (configuration not stated), the activation is inactive: -3.8%.

On to `Cc1cc(C)cc(OP(C)(=O)Nc2ccccn2)c1` (configuration not stated), for which the activation was inactive: -3.49%.

Take `CP(=O)(Nc1cccc(Br)c1)Oc1ccccc1` (configuration not stated): the activation was inactive: -11.2%.

For `Cc1ccc(C)c(NP(C)(=O)Oc2ccccc2)c1` (configuration not stated), the activation is inactive: -0.29%.

For `O=C(O)c1cccc(Nc2c([N+](=O)[O-])cc([N+](=O)[O-])cc2[N+](=O)[O-])c1`, the activation was inactive: -1.76%.

In the case of `CC1=NCCc2c1[nH]c1ccccc21.O=[N+]([O-])c1cc([N+](=O)[O-])c(O)c([N+](=O)[O-])c1`, the activation is inactive: -1.34%.

Turning to `O=[N+]([O-])c1cc([N+](=O)[O-])c(Nc2cccnc2)c([N+](=O)[O-])c1`, the activation was inactive: 3.56%.

Regarding `Cc1cccc(C)c1OP(C)(N)=O` (configuration not stated), the activation was inactive: 0.44%.

On to `CC(C)(C)c1ccc(OP(C)(=O)Nc2ccc(SC(F)(F)F)cc2)cc1` (configuration not stated), for which the activation was inactive: -3.55%.

Take `O=[N+]([O-])c1ccc2c(c1)C=Nc1ccccc1O2`: the activation was inactive: 0.28%.

With `CCOC(=O)c1ccc(NP(C)(=O)Oc2ccccc2)cc1` (configuration not stated), the activation was inactive: 2.28%.

Take `Cc1ccc(NP(C)(=O)Oc2ccccc2)c(C)c1` (configuration not stated): the activation is inactive: -2.98%.

Regarding `COc1ccccc1OP(C)(=O)Nc1ccc(C)cc1` (configuration not stated), the activation was inactive: -2.95%.

For `COc1ccc(OP(C)(=O)Nc2cccc(F)c2)cc1` (configuration not stated), the activation was inactive: 2.67%.

For `COc1ccccc1OP(C)(=O)Nc1cc(Cl)ccc1C` (configuration not stated), the activation was inactive: -1.77%.

In the case of `Cc1cc(C)cc(OP(C)(N)=O)c1` (configuration not stated), the activation was inactive: 2.1%.

For `COc1ccccc1-c1ccccn1.O=[N+]([O-])c1cc([N+](=O)[O-])c(O)c([N+](=O)[O-])c1`, the activation was inactive: 0.57%.

For `CP(=O)(Oc1ccccc1)OC(c1ccccc1)C(F)(F)F` (configuration not stated), the activation was inactive: -0.53%.

With `CP(=O)(Nc1ccc(SC(F)(F)F)cc1)Oc1ccc(Cl)cc1` (configuration not stated), the activation is inactive: 3.55%.

For `Cc1cccc(C)c1OP(C)(=O)Nc1ccc(SC(F)(F)F)cc1` (configuration not stated), the activation is inactive: 1.46%.

In the case of `Cc1cc(C)cc(OP(C)(=O)Nc2ccc(SC(F)(F)F)cc2)c1` (configuration not stated), the activation was inactive: -3.75%.

Consider `CP(=O)(NC(=O)Nc1ccccc1)Oc1ccccc1` (configuration not stated), for which the activation is inactive: 3.56%.

For `CCc1ccc(OP(C)(=O)N2CCN(c3ccc([N+](=O)[O-])cc3)CC2)cc1` (configuration not stated), the activation is inactive: -7.33%.

As to `CCOP(C)(=S)SCC(=O)NC(C)C(=O)O` (configuration not stated), the activation is inactive: 1.61%.

With `O=[N+]([O-])c1cc([N+](=O)[O-])c(O)c([N+](=O)[O-])c1.c1ccc(Oc2ccncc2)cc1`, the activation was inactive: 9.09%.

For `CCOC(=O)c1ccc(NP(C)(=O)Oc2ccc(OC)cc2)cc1` (configuration not stated), the activation was inactive: 2.13%.

As for `CP(=O)(Nc1ccccn1)Oc1ccc(Cl)cc1` (configuration not stated), the activation is inactive: -1.73%.

For `CP(=S)(Nn1cnnc1)Oc1ccccc1` (configuration not stated), the activation was inactive: 0.79%.

Consider `COc1ccccc1OP(C)(=O)Nc1ccccc1` (configuration not stated), for which the activation was inactive: 0.06%.

Regarding `CP(=O)(Nc1ccccc1Br)Oc1ccccc1` (configuration not stated), the activation was inactive: -1.95%.
